Source: patent publication US20110046108A1, “PYRIMIDINE DERIVATIVES” (AstraZeneca AB, priority 2006, published 2011)

Chains of the proteins cited; added tags and fusions are not shown. Residues count along the entry.
UniProt P29317, 24-976: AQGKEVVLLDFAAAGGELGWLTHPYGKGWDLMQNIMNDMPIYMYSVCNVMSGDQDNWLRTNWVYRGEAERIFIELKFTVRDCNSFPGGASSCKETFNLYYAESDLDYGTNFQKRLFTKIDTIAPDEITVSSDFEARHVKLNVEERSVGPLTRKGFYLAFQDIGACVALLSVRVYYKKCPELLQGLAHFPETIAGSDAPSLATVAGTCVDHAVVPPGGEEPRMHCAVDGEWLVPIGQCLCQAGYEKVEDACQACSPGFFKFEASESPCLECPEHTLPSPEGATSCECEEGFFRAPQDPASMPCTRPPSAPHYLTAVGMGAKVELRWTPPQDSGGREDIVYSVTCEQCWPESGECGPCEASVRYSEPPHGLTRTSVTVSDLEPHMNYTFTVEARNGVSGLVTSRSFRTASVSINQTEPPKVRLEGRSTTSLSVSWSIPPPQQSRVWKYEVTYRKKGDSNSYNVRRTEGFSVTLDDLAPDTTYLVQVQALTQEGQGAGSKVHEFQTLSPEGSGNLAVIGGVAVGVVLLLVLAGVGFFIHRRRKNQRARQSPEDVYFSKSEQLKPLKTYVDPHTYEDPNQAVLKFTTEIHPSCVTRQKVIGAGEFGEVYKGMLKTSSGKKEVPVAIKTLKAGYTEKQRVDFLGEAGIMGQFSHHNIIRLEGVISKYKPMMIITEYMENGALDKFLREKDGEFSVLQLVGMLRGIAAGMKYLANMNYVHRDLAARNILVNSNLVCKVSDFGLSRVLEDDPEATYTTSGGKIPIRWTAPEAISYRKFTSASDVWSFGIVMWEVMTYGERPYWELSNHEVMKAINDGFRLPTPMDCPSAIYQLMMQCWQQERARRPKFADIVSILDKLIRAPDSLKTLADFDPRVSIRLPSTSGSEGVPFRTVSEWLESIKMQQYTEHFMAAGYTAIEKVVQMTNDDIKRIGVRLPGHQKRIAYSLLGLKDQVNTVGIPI

Target: EphA2 kinase (Homo sapiens, UniProt P29317)
Experiment: biochemical

Question: For `COc1cc(Nc2nccc(Nc3c(Cl)ccc4c3OCO4)n2)cc(OC)c1OC` [Example 1, N˜4˜-(5-Chloro-1,3-benzodioxol-4-yl)-N˜2˜-(3,4,5-trimethoxyphenyl)pyrimidine-2,4-diamine], which IC50 is on record?
Answer: The IC50 was 15 nM.
